These results are taken from PubChem BioAssay AID454 (Sanford-Burnham Center for Chemical Genomics, 2006).

Molecules are shown by their SMILES. Only a part is listed here, and it is no random draw. The source made the active and inactive calls.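 How the source made its calls: active means compound among top-ranked inhibitors of TNF-induced VCAM-1 adhesion protein staining, with the hit upheld by image or statistical review; inactive means the rest, including hits rejected on review.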

The assay is described as follows: suppression of endothelial VCAM-1 upregulation – cell-based, plate reader, pooled HUVEC, TNFa stimulus (AID 454). To be noted: HUVEC TNFa-induced VCAM-1 surface immunofluorescence, active compounds read high,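 compound tested at 5 µM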.
For orientation: inhibition means the change of the read-out against control, counted positive when it falls. Take `COP1(=S)c2c(C)nn(CCC#N)c2N=C(c2ccc(F)cc2)N1C` (stereo not given): the inhibition is inactive: 0%.

Take `O=C(COc1ccccc1)OC1CN2CCC1CC2` (stereo not given): the inhibition was inactive: 0%.

Turning to `Cc1nn(-c2ccccc2)c2c1P(=O)(N1CCOCC1)N(C)C(c1ccccc1)=N2` (stereo not given), the inhibition was inactive: 0%.

Turning to `CCOP1(=S)c2c(C)nn(CCC#N)c2N=C(c2ccccc2F)N1C` (stereo not given), the inhibition was inactive: 0%.

Take `O=P(Nc1nccs1)(c1ccccc1)c1ccccc1`: the inhibition is inactive: 0%.
